Results as given in patent US6900021B1, “Microfluidic system and methods of use” (The University of Alberta, priority 1997, dated 2005).

Tests used:
Type in all cases: cell-based
E-selectin [1] = molecular target: T1, E-selectin (Homo sapiens, UniProt P16581); assay: Cell rolling assay with undiluted human blood, E-selectin coated device; settings: fresh solution of 1000 μg/ml; heparinated whole human blood; HCRIVc device
T1 sequence (P16581 22-610): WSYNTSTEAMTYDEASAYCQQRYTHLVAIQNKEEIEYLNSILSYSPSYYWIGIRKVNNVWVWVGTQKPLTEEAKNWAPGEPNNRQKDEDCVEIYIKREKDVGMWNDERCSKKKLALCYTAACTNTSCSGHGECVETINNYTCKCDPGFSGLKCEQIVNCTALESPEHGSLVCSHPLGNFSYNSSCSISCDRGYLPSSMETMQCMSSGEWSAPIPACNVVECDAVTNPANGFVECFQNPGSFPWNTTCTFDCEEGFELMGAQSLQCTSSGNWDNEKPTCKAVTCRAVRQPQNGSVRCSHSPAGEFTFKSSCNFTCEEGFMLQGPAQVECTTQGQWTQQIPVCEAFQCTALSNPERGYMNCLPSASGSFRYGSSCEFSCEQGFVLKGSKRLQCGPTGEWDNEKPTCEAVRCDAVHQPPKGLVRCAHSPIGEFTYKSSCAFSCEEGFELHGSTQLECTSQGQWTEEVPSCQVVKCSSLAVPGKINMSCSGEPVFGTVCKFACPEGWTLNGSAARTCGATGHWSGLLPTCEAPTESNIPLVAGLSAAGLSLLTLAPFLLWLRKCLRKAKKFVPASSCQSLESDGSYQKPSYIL
Procedure: Undiluted whole human blood was used in the cell rolling assay described in Example VII above.
This device was previously coated either P-selectin or E-selectin as described above. 50 μl heparinated whole human blood (1 mg/ml heparin was added to the blood) was introduced into the first reservoir of the “Y” shape device shown in FIG. 12. The human blood was moved from the reservoir into the channel by a syringe pump at optimum flow rate for the device (see Table II) and the main flow channel, about 1-2 cm from intersection of “Y”, was observed under the microscope for 15 minutes.
50 μl of a mixture of inhibitor and heparinated blood was placed into the second reservoir and introduced into the channel for 3-10 minutes. The length of time required to inhibit the rolling of the leukocytes in the whole blood depended upon the inhibitor studied.

P-selectin = molecular target: T2, P-selectin (Homo sapiens, UniProt P16109); assay: Cell rolling assay with undiluted human blood, P-selectin coated device; settings: fresh solution of 1000 μg/ml; heparinated whole human blood; HCRIVc device
T2 sequence (P16109 42-830): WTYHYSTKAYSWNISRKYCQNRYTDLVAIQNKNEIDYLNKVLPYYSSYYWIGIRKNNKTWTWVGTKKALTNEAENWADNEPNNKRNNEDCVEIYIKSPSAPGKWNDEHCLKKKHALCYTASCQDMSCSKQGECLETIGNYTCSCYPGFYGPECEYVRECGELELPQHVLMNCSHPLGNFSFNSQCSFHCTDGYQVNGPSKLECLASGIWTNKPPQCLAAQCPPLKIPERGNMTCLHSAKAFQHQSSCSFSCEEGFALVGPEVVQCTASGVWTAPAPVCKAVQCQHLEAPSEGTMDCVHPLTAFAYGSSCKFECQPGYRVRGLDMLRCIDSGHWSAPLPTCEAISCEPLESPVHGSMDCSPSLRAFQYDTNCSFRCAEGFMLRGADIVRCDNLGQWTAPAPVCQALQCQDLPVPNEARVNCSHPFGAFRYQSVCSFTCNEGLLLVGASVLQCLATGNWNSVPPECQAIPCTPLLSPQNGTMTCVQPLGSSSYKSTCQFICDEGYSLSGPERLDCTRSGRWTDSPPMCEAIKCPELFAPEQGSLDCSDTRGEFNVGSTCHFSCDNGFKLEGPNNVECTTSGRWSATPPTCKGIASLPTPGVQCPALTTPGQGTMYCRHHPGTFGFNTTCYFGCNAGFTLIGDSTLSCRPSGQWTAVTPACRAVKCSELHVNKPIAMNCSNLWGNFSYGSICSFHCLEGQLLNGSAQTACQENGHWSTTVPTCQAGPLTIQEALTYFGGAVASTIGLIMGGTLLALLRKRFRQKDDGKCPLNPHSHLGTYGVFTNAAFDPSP

E-selectin [2] = molecular target: T1, E-selectin; assay: Cell rolling of neutrophils on E-selectin coated microchip; settings: fresh solution of 1000 μg/ml
Procedure: In preparation for cell rolling, the channels were coated with the desired selectin by methods similar to those set forth in Example VII.
To study cell rolling, two reservoirs leading to one channel were filled with cells. The contents of both the first and second reservoir (cells only) were drawn into the channel and cell rolling was observed.
A second HCRIVa microchip was coated with 20 μg/ml E-selectin as described in Example VII and incubated for two hours. Isolated human neutrophils were moved through the rolling microchip with a flow rate of 10 μl/min. (approx. 800/cm shear rate=40 dynes/cm^2 shear force). […] In the first run the anti-E-selectin antibody was added to the right reservoir at approximately 1:54:42 and in the second run, the anti-E-selectin antibody was added to the right reservoir at approximately 0:39:30.

inhibition of neutrophil rolling in the presence of E-selectin (E-selectin [2]): inhibited rolling instantaneously
Substance: sialyl Lewis^x
inhibition of leukocyte rolling in whole blood in the presence of E-selectin (E-selectin [1]): inhibited leukocyte rolling instantaneously
inhibition of leukocyte rolling in whole blood in the presence of P-selectin (P-selectin): inhibited leukocyte rolling instantaneously
